Literature values as cited in US20190374647A1 (published 2019).

Conditions: cited from earlier work

O=S(=O)(O)c1ccc(O)cc1
LogP (acid): −1.624
LogD (acid)- at pH = 5.5 (pH 5.5): −5.12
